Assay [1] concerns the target T1, μ-opioid receptors (Homo sapiens (Human), UniProt P35372). The experiment in a line: μ-opioid receptor radioligand dose-displacement binding assay ([3H]-diprenorphine). Particulars: read-out: Binding Affinity Opioid Receptor Ki (nM) [mean ± SEM] μ, tested form: TFA salt. Here is the method:
Radioligand dose-displacement binding assays for μ-opioid receptors used 0.3 nM [^3H]-diprenorphine (Perkin Elmer, Shelton, Conn.), with […] membrane protein/well in a final volume of 500 μl binding buffer (10 mM MgCl2, 1 mM EDTA, 5% DMSO, 50 mM HEPES, pH 7.4). Reactions were carried out in the absence or presence of increasing concentrations of unlabeled naloxone. All reactions were conducted in 96-deep well polypropylene plates for 2 hours at room temperature. […] BetaScint scintillation cocktail (Perkin Elmer, Shelton, Conn.) was added (50 μl/well), and plates were counted using a Packard Top-Count for 1 min/well. The data were analyzed using the one-site competition curve fitting functions in GraphPad PRISM™ v. […]
The following tables provide results on the efficacy of binding and activity response of exemplified Compounds of the Invention at the μ- and κ-opioid receptors. In TABLE 3, binding affinity of certain Compounds of the Invention to the μ- and κ-opioid receptors was determined as described above. In TABLE 4, activity response of certain Compounds of the Invention to the μ- and κ-opioid receptors was determined as described above for functional assays using HEK-293 cells. In TABLE 5, activity response of certain Compounds of the Invention to the μ- and κ-opioid receptors was determined as described above using U-2 OS cells.

Chains of the proteins cited; added tags and fusions are not shown.
UniProt P35372, whole entry: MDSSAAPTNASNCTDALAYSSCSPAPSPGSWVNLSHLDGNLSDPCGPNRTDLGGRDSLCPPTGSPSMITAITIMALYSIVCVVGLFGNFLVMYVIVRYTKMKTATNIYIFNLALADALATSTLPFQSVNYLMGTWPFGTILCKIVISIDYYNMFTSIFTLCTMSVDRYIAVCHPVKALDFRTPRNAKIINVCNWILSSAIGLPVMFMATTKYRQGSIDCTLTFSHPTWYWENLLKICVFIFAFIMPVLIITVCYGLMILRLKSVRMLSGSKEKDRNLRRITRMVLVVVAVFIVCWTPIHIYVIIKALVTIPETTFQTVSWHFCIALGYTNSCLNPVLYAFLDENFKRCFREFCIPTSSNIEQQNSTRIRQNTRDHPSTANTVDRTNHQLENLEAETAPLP
UniProt P41145, whole entry: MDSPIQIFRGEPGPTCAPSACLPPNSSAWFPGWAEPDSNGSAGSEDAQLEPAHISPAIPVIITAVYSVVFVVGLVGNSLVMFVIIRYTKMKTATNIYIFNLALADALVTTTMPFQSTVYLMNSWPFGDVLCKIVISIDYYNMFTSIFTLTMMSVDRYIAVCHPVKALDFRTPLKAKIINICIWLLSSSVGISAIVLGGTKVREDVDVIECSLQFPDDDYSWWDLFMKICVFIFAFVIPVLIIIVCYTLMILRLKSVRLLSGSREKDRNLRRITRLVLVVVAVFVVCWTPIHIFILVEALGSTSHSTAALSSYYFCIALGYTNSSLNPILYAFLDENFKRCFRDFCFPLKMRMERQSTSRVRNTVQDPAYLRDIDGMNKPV

Assay [2] concerns the target T1, μ-opioid receptors. Nature of the assay: μ-opioid receptor [35S]GTPγS functional assay, U-2 OS cells. Format: biochemical. Particulars: read-out: Activity Response μ EC50 (nM) [mean ± SEM], μ GTP, tested form: TFA salt. Here is the method: [^35S]GTPγS functional assays were conducted using freshly thawed μ-receptor membranes prepared from a cell line expressing recombinant μ opioid receptor in a HEK-293, CHO or U-2 OS cell background or purchased from a commercial source (Perkin Elmer, Shelton, Conn.; or DiscovRx, Fremont, Calif.). Assay reactions were prepared by sequentially adding the following reagents to binding buffer (100 mM NaCl, 10 mM MgCl2, 20 mM HEPES, pH 7.4) on ice (final concentrations indicated): membrane protein (0.026 mg/mL), saponin ([…]), GDP ([…]) and [^35S]GTPγS (0.20 nM; Perkin Elmer, Shelton, Conn.). […] BetaScint scintillation cocktail (Perkin Elmer, Shelton, Conn.) was added (50 μl/well) and plates were counted using a Packard Top-Count for 1 min/well. Data were analyzed using the sigmoidal dose-response curve fitting functions in GraphPad PRISM v. […]
The following tables provide results on the efficacy of binding and activity response of exemplified Compounds of the Invention at the μ- and κ-opioid receptors. In TABLE 3, binding affinity of certain Compounds of the Invention to the μ- and κ-opioid receptors was determined as described above. In TABLE 4, activity response of certain Compounds of the Invention to the μ- and κ-opioid receptors was determined as described above for functional assays using HEK-293 cells. […]

The next assay addresses κ opioid receptor (Homo sapiens (Human), UniProt P41145). Nature of the assay: κ-opioid receptor [35S]GTPγS functional assay, U-2 OS cells. The assay is classed as biochemical. Particulars: read-out: Activity Response κ EC50 (nM) [mean ± SEM], κ GTP, tested form: TFA salt.
Assay [3] addresses recombinant human kappa opioid receptor (κ) (Homo sapiens (Human), UniProt P41145). The experiment in a line: κ-opioid receptor radioligand dose displacement binding assay ([3H]-U69,593). Particulars: read-out: Binding Affinity Opioid Receptor Ki (nM) [mean ± SEM] κ, tested form: TFA salt. As for the experimental part:
Membranes from HEK-293 cells, CHO or U-2 OS cells expressing the recombinant human kappa opioid receptor (κ) were prepared by lysing cells in ice cold hypotonic buffer (2.5 mM MgCl2, 50 mM HEPES, pH 7.4) (10 mL/10 cm dish) followed by homogenization with a tissue grinder/Teflon pestle. Membranes were collected by centrifugation at 30,000×g for 15 min at 4° C. and pellets were resuspended in hypotonic buffer to a final concentration of 1-3 mg/mL. Protein concentrations were determined using the BioRad protein assay reagent with bovine serum albumen as standard. Aliquots of κ receptor membranes were stored at −80° C.
Radioligand dose displacement assays used 0.4 nM [^3H]-U69,593 (GE Healthcare, Piscataway, N.J.; 40 Ci/mmole) with 15 μg membrane protein (recombinant κ opioid receptor expressed in HEK 293 cells; in-house prep) in a final volume of 200 μl binding buffer (5% DMSO, 50 mM Trizma base, pH 7.4). Non-specific binding was determined in the presence of 10 μM unlabeled naloxone or U69,593. All reactions were performed in 96-well polypropylene plates for 1 hour at a temperature of about 25° C. […] Fifty μl/well scintillation cocktail (Perkin Elmer, Shelton, Conn.) was added and plates were counted in a Packard Top-Count for 1 min/well. […]

The record followed here is patent US9388162B2, “Substituted morphinans and the use thereof” (Purdue Pharma L.P., priority 2012, dated 2016).

For `COc1ccc2c(c1)C13CCN(CC4CC4)C(C2)C1(O)CC(OCc1ccccc1)C(=O)C3` (stereo not shown), the Ki at μ-opioid receptors [1] was determined as 668 nM; in assay [3] it was 249 nM. Also, the concentration for a half-maximal effect (EC50) on μ-opioid receptors [2] was found to be 463 nM; at κ opioid receptor, 317 nM.

By Ki is commonly meant the equilibrium dissociation constant of an inhibitor or competing ligand from its target. A word on the EC50: it is the concentration that produces a half-maximal response.
